How the values were obtained:
Format in all cases: cell-based
[1] = molecular target: T1, Acid-sensing ion channel 1 (Homo sapiens) (UniProt P78348); assay: Inhibition of ASIC1a (unknown origin) in doxycycline-inducible human HEK-293T cells assessed as intracellular calcium at 30 uM by Fluo-4 AM staining based fluorescence assay
T1 sequence (whole entry): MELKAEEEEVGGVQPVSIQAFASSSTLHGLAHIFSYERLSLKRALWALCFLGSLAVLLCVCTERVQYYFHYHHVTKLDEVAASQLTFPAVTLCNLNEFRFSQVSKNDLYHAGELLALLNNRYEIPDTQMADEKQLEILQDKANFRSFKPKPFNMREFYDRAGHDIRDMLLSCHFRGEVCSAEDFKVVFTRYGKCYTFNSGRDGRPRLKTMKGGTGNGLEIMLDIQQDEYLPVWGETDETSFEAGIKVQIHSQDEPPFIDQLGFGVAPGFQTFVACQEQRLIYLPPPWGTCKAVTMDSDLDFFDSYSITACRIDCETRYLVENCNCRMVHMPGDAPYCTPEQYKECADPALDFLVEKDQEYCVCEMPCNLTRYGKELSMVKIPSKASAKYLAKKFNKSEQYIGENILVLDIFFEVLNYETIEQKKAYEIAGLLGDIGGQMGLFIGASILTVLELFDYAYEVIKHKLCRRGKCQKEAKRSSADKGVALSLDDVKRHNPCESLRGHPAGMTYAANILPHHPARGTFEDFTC

Amino acid sequences for entries named in this document (tags omitted).
UniProt Q9HBA0, whole entry: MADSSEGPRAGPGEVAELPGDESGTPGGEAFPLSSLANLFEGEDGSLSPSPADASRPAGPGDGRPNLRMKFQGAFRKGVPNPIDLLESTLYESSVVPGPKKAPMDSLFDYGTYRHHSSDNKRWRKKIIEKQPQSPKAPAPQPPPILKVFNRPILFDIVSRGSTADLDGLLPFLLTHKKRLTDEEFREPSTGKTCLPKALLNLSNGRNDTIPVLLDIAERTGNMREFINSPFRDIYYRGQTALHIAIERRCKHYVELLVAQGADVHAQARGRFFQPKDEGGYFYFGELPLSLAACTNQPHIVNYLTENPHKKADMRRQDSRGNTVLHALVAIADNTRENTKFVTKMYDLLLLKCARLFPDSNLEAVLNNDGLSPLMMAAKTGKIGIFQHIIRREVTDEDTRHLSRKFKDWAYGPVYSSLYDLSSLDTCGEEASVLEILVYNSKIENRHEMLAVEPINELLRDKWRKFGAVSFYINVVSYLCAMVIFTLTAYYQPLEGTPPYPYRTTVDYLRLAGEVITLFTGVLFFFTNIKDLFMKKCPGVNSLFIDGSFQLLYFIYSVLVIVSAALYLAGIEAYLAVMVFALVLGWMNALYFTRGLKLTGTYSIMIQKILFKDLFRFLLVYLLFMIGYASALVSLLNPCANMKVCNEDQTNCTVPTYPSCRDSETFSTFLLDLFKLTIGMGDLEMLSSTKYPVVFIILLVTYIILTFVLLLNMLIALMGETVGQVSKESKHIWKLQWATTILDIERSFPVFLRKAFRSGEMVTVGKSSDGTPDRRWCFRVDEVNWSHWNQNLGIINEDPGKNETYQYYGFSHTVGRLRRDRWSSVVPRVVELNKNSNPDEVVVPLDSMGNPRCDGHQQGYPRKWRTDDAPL
UniProt Q7Z2W7, whole entry, looked up: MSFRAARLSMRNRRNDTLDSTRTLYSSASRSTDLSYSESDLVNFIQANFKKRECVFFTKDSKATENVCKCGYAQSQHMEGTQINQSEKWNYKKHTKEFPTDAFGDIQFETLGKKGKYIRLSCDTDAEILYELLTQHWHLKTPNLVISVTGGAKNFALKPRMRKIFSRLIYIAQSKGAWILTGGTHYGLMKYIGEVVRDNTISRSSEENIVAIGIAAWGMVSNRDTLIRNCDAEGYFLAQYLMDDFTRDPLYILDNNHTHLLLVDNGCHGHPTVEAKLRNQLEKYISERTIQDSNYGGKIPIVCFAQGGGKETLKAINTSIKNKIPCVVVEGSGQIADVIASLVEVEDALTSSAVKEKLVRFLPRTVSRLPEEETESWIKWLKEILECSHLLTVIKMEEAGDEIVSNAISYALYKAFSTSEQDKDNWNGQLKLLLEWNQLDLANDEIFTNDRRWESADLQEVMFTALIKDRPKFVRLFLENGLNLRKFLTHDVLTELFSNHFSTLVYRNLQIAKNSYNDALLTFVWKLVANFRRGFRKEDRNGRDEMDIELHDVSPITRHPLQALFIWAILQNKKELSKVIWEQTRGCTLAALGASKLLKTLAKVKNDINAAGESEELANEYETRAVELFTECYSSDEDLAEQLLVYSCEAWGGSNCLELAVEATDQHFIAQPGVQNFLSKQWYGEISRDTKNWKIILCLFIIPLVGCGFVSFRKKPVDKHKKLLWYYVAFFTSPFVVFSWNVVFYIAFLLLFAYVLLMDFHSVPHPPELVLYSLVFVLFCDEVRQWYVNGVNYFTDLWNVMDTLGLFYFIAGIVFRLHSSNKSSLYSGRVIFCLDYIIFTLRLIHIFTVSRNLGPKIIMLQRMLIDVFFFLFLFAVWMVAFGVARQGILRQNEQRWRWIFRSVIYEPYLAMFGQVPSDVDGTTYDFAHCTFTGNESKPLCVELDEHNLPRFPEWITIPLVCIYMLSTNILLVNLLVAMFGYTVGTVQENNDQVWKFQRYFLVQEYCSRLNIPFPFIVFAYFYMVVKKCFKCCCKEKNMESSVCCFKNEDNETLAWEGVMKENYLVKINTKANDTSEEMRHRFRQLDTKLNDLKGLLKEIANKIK

[2] = molecular target: Transient receptor potential cation channel subfamily V member 4 (Homo sapiens) (UniProt Q9HBA0); assay: Inhibition of TRPV4 channel (unknown origin) in doxycycline-inducible human HEK-293T cells assessed as inhibition of GSK1016790A activated current by measuring inhibition rate at +80 mV to -80 mV at 30 uM by whole-cell patch clamp electrophysiology relative to control
[3] = molecular target: T2, Short transient receptor potential channel 6 (Homo sapiens) (UniProt Q9Y210); assay: Inhibition of TRPC6 channel (unknown origin) in doxycycline-inducible human HEK-293T cells assessed as inhibition of hyperforin activated current by measuring inhibition rate at +80 mV to -80 mV at 30 uM by whole-cell patch clamp electrophysiology relative to control
T2 sequence (whole entry): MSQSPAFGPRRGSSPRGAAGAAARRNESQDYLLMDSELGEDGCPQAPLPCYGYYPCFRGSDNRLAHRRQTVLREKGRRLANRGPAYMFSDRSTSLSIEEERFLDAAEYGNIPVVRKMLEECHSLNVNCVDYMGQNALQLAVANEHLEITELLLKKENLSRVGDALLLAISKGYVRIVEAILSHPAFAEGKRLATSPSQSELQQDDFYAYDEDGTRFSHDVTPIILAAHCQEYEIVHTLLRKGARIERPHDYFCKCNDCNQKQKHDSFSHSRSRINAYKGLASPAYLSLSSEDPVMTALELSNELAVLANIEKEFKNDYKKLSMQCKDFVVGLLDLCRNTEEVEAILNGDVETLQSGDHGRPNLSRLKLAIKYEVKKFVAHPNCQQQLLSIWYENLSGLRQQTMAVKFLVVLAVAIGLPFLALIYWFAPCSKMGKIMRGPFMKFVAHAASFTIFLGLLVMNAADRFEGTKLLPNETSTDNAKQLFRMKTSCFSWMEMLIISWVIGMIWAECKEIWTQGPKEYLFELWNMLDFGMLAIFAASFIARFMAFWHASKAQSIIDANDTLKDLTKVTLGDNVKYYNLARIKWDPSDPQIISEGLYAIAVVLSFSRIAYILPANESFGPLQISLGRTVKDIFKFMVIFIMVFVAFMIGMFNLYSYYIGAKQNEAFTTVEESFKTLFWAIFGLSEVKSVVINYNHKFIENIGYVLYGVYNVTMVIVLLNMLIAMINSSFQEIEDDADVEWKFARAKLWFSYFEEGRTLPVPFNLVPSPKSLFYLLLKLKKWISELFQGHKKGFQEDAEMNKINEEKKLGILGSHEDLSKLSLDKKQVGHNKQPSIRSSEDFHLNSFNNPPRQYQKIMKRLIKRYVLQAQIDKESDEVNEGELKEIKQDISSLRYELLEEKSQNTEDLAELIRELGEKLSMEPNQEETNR

[4] = molecular target: Transient receptor potential cation channel subfamily M member 8 (Homo sapiens) (UniProt Q7Z2W7); assay: Inhibition of TRPM8 (unknown origin) in doxycycline-inducible human HEK-293T cells assessed as inhibition of menthol activated current by measuring inhibition rate at +80 mV to -80 mV at 30 uM by whole-cell patch clamp electrophysiology relative to control

inhibition [1]: 15.6% | inhibition [2]: 14% | inhibition [3]: 15.8% | inhibition [4]: 20.7%
SMILES: COC(=O)c1cc(C(=O)c2ccccc2)n2cccc2c1

Reference: ChEMBL document CHEMBL6109145, “Indolizine Derivatives Inhibit TRPM2 and Protect against Ischemic Brain Injury with an Extended Treatment Window” (J Med Chem, 2025)
